Laboratory results published in paper PMC3873911, “A Single-Nucleotide Polymorphism of Human Neuropeptide S Gene Originated from Europe Shows Decreased Bioactivity” (PLoS ONE, 2013).

Molecular target: T1, CCKB (Homo sapiens, UniProt P32239)
T1 construct: expressed in transfected cells; host or cells: HEK293T (inferred from the general luciferase protocol)
T1 sequence (P32239 1-447): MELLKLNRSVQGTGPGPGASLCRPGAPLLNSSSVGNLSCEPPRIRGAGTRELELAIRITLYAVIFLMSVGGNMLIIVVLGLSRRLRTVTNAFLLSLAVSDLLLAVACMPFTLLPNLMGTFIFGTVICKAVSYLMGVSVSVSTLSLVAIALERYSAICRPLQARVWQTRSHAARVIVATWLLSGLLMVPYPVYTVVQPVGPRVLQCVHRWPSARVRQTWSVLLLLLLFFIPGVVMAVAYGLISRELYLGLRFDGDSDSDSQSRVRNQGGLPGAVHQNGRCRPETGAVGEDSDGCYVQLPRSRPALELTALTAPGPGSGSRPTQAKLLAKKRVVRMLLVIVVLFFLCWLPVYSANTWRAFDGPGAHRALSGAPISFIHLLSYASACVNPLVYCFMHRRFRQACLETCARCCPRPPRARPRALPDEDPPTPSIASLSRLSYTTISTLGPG
Experiment: SRE-luciferase assay, gastrin-CCKB ligand-receptor pair (positive control)
Format: cell-based
Settings: Fig. S4

Substance: gastrin
- stimulation of SRE-luciferase via CCKB: normal stimulation
